# AlphaSeq binding of Ab-95 light chain variants to a spike HR2 peptide

The measurements come from Engelhart et al. 2022 (doi:10.1038/s41597-022-01779-4) through the FLAb antibody collection.

Target: peptide PDVDLGDISGINAS, taken from heptad repeat 2 (HR2) of SARS-CoV-2 spike.

Parent: Ab-95, a human scFv built as VH, three GGGGS repeats, VL. Only the CDRs of the light chain vary.
VH: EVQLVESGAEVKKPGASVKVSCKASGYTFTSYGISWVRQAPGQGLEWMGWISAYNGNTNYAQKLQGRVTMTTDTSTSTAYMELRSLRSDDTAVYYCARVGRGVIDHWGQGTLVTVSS
VL: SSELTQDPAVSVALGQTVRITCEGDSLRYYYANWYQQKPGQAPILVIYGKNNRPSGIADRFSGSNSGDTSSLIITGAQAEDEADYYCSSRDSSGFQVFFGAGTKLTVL

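The parent was found by panning a naive human phage display library on the peptide. In library AAYL52, one, two or three CDR residues were substituted; doubles and triples were drawn at random. Affinity was read by AlphaSeq, a pooled yeast mating assay with surface-displayed partners. The frequency of each diploid, read from paired DNA barcodes, reflects how well the two displayed proteins bind. Scores were corrected for input abundance and mapped to Kd with protein pairs of known affinity run in the same pool. Mating was done three times.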

Changes read parent residue, position, new residue, counted from the first residue of the VL shown.
Affinities are written as log10 Kd with Kd in nM; a lower number is a better binder.
A mean of the replicates is given; it leaves out those without a signal.
"nd" means that the variant was in the library but no mating with the target was seen in any replicate; the authors take this as a sign of poor binding, and no number exists.
Background: pairings of library AAYL52 with three empty control strains gave a value in 28% of cases (median 3.91, 5th percentile 2.90). Values in that range, when seen in few replicates, are hard to tell from nonspecific mating. The control count says in how many pairings with the empty strains this scFv gave a signal.
Parent in this assay: reference entry 2.31, copy in this library 2.25.

{"changes": "A32S P54G S88L", "log10 Kd (nM), mean": "3.96", "detected": "2/3", "empty controls": "3/9"}
{"changes": "G49V S89Y", "log10 Kd (nM), mean": "4.42", "detected": "1/3", "empty controls": "4/9"}
{"changes": "K50P S92M", "log10 Kd (nM), mean": "2.24", "detected": "3/3", "empty controls": "3/9"}
{"changes": "L27W A32Q R90M", "log10 Kd (nM), mean": "nd", "detected": "0/3", "empty controls": "3/9"}
{"changes": "Y29A R53N S88N", "log10 Kd (nM), mean": "4.17", "detected": "2/3", "empty controls": "3/9"}
{"changes": "D25V S26Q Y30E", "log10 Kd (nM), mean": "1.86", "detected": "3/3", "empty controls": "4/9"}
{"changes": "Y31C G49R D91S", "log10 Kd (nM), mean": "3.69", "detected": "1/3", "empty controls": "2/9"}
{"changes": "G49R S55P S89T", "log10 Kd (nM), mean": "nd", "detected": "0/3", "empty controls": "3/9"}
{"changes": "K50P P54N", "log10 Kd (nM), mean": "2.58", "detected": "3/3", "empty controls": "5/9"}
{"changes": "E23T D25T K50T", "log10 Kd (nM), mean": "2.47", "detected": "3/3", "empty controls": "1/9"}
{"changes": "A32Y G49F K50N", "log10 Kd (nM), mean": "nd", "detected": "0/3", "empty controls": "1/9"}
{"changes": "Y29I N51I S88Q", "log10 Kd (nM), mean": "2.73", "detected": "1/3", "empty controls": "2/9"}
{"changes": "Y30P A32V R90A", "log10 Kd (nM), mean": "2.20", "detected": "3/3", "empty controls": "1/9"}
{"changes": "E23V S88Y D91Y", "log10 Kd (nM), mean": "1.99", "detected": "3/3", "empty controls": "3/9"}
{"changes": "A32G N33R R90H", "log10 Kd (nM), mean": "4.15", "detected": "2/3", "empty controls": "3/9"}
{"changes": "L27P S89I V97S", "log10 Kd (nM), mean": "3.64", "detected": "3/3", "empty controls": "3/9"}
{"changes": "S26V N52L F98H", "log10 Kd (nM), mean": "nd", "detected": "0/3", "empty controls": "0/9"}
{"changes": "Y30R D91T S92L", "log10 Kd (nM), mean": "2.32", "detected": "3/3", "empty controls": "2/9"}
{"changes": "R28I K50R F98H", "log10 Kd (nM), mean": "3.11", "detected": "3/3", "empty controls": "2/9"}
{"changes": "Y30E A32T F95D", "log10 Kd (nM), mean": "3.35", "detected": "3/3", "empty controls": "1/9"}
{"changes": "Y31V G94I V97N", "log10 Kd (nM), mean": "nd", "detected": "0/3", "empty controls": "0/9"}
{"changes": "Y29G N33D R53Q", "log10 Kd (nM), mean": "3.73", "detected": "2/3", "empty controls": "3/9"}
{"changes": "D25N A32M Q96N", "log10 Kd (nM), mean": "nd", "detected": "0/3", "empty controls": "3/9"}
{"changes": "S26F K50N G94A", "log10 Kd (nM), mean": "3.70", "detected": "3/3", "empty controls": "2/9"}
{"changes": "G24V K50H N52L", "log10 Kd (nM), mean": "nd", "detected": "0/3", "empty controls": "1/9"}
{"changes": "D25E Y31G N52P", "log10 Kd (nM), mean": "2.20", "detected": "3/3", "empty controls": "4/9"}
{"changes": "N33D D91L S93M", "log10 Kd (nM), mean": "3.45", "detected": "2/3", "empty controls": "3/9"}
{"changes": "S26N S88W D91W", "log10 Kd (nM), mean": "4.61", "detected": "2/3", "empty controls": "2/9"}
{"changes": "S26V Y30M Y31M", "log10 Kd (nM), mean": "1.96", "detected": "3/3", "empty controls": "4/9"}

Repeated from above, the 2 best binders with a signal in all replicates:

changes,"log10 Kd (nM), mean",detected,empty controls
D25V S26Q Y30E,1.86,3/3,4/9
S26V Y30M Y31M,1.96,3/3,4/9